This is an account of results in ChEMBL document CHEMBL2203147 (ACS Med Chem Lett, 2011).

The chains behind the UniProt entries cited, without tags or fusion partners.
UniProt P19020, whole entry: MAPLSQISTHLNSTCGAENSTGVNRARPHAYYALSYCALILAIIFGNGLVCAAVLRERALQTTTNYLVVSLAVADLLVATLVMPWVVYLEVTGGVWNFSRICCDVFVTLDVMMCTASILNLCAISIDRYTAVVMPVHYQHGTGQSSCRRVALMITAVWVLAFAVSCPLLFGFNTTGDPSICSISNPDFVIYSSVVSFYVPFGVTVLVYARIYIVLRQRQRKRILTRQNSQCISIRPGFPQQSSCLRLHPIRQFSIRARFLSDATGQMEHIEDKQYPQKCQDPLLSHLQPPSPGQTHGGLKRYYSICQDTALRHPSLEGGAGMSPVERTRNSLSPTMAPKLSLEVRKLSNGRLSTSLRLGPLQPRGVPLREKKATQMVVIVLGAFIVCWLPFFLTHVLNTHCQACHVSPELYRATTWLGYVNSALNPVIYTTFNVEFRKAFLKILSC
UniProt P61169, whole entry: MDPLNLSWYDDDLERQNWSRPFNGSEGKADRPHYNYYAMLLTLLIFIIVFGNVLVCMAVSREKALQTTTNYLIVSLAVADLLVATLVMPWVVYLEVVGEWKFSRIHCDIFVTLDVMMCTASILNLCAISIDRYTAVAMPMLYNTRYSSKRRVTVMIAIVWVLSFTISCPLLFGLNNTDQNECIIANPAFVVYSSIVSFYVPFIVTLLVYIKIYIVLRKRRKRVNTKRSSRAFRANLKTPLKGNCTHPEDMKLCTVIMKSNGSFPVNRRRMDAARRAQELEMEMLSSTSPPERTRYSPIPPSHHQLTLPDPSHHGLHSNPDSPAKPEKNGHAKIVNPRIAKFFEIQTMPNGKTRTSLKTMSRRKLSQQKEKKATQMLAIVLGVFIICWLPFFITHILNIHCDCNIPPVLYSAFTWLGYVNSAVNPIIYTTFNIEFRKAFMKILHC
UniProt P35462, whole entry: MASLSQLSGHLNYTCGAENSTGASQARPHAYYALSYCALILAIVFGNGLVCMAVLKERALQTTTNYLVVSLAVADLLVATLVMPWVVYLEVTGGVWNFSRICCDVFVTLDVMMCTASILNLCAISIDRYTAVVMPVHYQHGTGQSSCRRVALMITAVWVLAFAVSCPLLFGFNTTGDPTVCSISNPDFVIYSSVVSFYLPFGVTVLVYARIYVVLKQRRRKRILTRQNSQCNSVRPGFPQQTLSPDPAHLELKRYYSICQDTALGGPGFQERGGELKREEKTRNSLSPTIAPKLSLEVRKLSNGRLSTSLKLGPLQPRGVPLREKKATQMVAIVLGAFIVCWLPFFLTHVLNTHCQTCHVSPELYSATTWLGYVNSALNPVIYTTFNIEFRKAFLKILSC

Assay [1] concerns the target D(3) dopamine receptor (Rattus norvegicus, UniProt P19020).
Assay [2] has as its target D(2) dopamine receptor (Rattus norvegicus, UniProt P61169).
Assay [3] concerns the target D(3) dopamine receptor (Homo sapiens, UniProt P35462). The assay is described as follows: biochemical.

A word on the Ki: it is the dissociation constant of the complex between target and ligand, obtained from inhibition or displacement. Low values mean tighter binding, high ones weaker binding. With `CCCN(CC[C@]1(O)C[C@@H](NC(=O)c2ccc3ccccc3c2)C1)[C@H]1CCc2nc(N)sc2C1`, the Ki in assay [1] was determined as 0.4 nM; in assay [2], 725 nM.

On to `CCCN(CC[C@]1(O)C[C@H](NC(=O)c2ccc3ccccc3c2)C1)[C@H]1CCc2nc(N)sc2C1`, for which the Ki turned out to be 0.5 nM in assay [1], 2570 nM in assay [2] and 3.61 nM in assay [3].
